According to US12595288B2 (priority 2020, dated 2026):

Tested on: DDAVP-induced hyponatremia in Sprague-Dawley rats
Details: rat, in vivo

Cc1ccccc1C(=O)Nc1ccc(C(=O)N2CCCC(O)c3cc(Cl)ccc32)c(C)c1 (stereo not shown) [tolvaptan]
mean value for sodium (plasma): 137.6 ± 3.3 mM
